Source: ChEMBL document CHEMBL3822453 (J Med Chem, 2016)

Each compound was assayed against T1, DNA repair protein RAD51 homolog 1 (Homo sapiens, UniProt Q06609) (assay: Inhibition of human N-terminal 6-histidine/Avi-tagged recombinant RAD51 expressed in Escherichia coli BL21(DE3) assessed as D-loop formation using 5'-32P-labeled 90-mer ssDNA as substrate preincubated for 10 mins followed by substrate addition with subsequent incubation with substrate for 5 mins measured after 20 mins in presence of supercoiled pRS306 dsDNA by agarose gel electrophoresis). Conditions: not given.
T1 sequence (Q06609 whole entry): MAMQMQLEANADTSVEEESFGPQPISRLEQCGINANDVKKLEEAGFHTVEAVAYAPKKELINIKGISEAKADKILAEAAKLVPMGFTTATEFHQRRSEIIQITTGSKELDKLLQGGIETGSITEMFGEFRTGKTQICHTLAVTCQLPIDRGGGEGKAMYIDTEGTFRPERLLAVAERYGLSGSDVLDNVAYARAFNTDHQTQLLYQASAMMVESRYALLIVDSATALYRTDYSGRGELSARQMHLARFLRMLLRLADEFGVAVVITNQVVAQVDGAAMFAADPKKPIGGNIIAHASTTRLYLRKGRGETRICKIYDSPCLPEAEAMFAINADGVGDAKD

IC50	SMILES
11.1 µM	CCNc1ccc(-c2nc3ccccc3n3cccc23)cc1

The compounds below were run against T1, DNA repair protein RAD51 homolog 1 (assay: Inhibition of Escherichia coli BL21(DE3) expressing human N-terminal 6-histidine/Avi-tagged RAD51 binding to 5'-Alexa488-oligo-dT45 ssDNA preincubated for 40 mins followed by substrate addition measured after 40 mins by fluorescence polarization based microplate method). Conditions: not given.
Method in brief: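 Human RAD51 preincubated with compound in DMSO at 37 °C for 40 min, then 5'-Alexa488-oligo-dT45 added and incubated another 40 min at 37 °C. Buffer: 20 mM HEPES pH 7.5, 2 mM ATP, 10 mM MgCl2, 0.1 mM TCEP. Final: 0.2 µM RAD51, 2.22 nM ssDNA, 30 mM NaCl, 4% DMSO. Fluorescence polarization read at 485/535 nm. IC50 from least-squares dose–response fits with standard error.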

IC50	SMILES
> 100 µM	Oc1ccc2c(c1)nc(-c1cccnc1)c1cccn12

What follows are compounds tested against T1, DNA repair protein RAD51 homolog 1 (assay: Inhibition of RAD51-mediated homologous recombination in human HEK293-DR-GFP cells transfected with pCBASce expressing I-Sce-I after 24 hrs following transfection by 7-aminoactinomycin D staining based flow cytometry). Conditions: not given.

IC50	SMILES
3 µM	CCNc1ccc(-c2nc3ccccc3n3cccc23)cc1

The compounds below were run against T2, DNA repair protein RAD51 homolog 1 (Homo sapiens) (UniProt Q06609). Conditions: 5 to 100 uM.
T2 sequence (whole entry): T1 sequence (Q06609 whole entry)

SMILES	Imax
c1ccc2c(c1)nc(-c1ccncc1)c1cccn12	63%
Nc1ccc(-c2nc3ccccc3n3cccc23)cc1	100%
Oc1ccc(-c2nc3ccccc3n3cccc23)cc1	38%
Nc1ccc(-c2nc3cc(F)c(F)cc3n3cccc23)cc1	59%
c1ccc2c(c1)nc(-c1ccc(N3CCCC3)cc1)c1cccn12	8%
Nc1cccc(-c2nc3ccccc3n3cccc23)c1	79%
C1=C(c2nc3ccccc3n3cccc23)CCCC1	5%
c1ccc2c(-c3nc4ccccc4n4cccc34)cccc2c1	42%
CN(C)c1ccc(-c2nc3ccccc3n3cccc23)cc1	61%
c1cncc(-c2nc3ccccc3n3cccc23)c1	70%
CN(C)c1ccc(-c2nc3cc(F)c(F)cc3n3cccc23)cc1	19%
FC(F)(F)Oc1ccc(-c2nc3ccccc3n3cccc23)cc1	22%

Results, then the compound that gave them:

Imax	SMILES
98%	Nc1ccc(-c2nc3cc(OCCF)ccc3n3cccc23)cc1
38%	CN(C)c1ccc(-c2nc3cc(OC(C)(C)C(N)=O)ccc3n3cccc23)cc1
75%	CCCOc1ccc2c(c1)nc(-c1ccc(N)cc1)c1cccn12
17%	COc1ccc2c(c1)nc(-c1ccc([N+](=O)[O-])cc1)c1cccn12
95%	Nc1ccc(-c2nc3cc(F)ccc3n3cccc23)cc1
100%	Nc1ccc(-c2nc3cc(O)ccc3n3cccc23)cc1
97%	Oc1ccc(-c2nc3cc(O)ccc3n3cccc23)cc1
13%	O=[N+]([O-])c1ccc(-c2nc3cc(O)ccc3n3cccc23)cc1
2%	O=[N+]([O-])c1ccc(-c2nc3ccccc3n3cccc23)cc1
20%	O=[N+]([O-])c1cccc(-c2nc3ccccc3n3cccc23)c1
31%	CN(C)c1ccc(-c2nc3cc(F)ccc3n3cccc23)cc1
